Source: ChEMBL document CHEMBL4017513, “Structure-Activity Relationships of Potent, Targeted Covalent Inhibitors That Abolish Both the Transamidation and GTP Binding Activities of Human Tissue Transglutaminase” (J Med Chem, 2017)

Experiments:
Cavia porcellus = organism: Cavia porcellus; assay: Ratio of Kinact to Ki for guinea pig liver TG2
[1] = molecular target: T1, Protein-glutamine gamma-glutamyltransferase (Homo sapiens) (UniProt P21980); assay: Irreversible inhibition of human TG2 using AL5 as substrate by colorimetric assay
T1 sequence (whole entry): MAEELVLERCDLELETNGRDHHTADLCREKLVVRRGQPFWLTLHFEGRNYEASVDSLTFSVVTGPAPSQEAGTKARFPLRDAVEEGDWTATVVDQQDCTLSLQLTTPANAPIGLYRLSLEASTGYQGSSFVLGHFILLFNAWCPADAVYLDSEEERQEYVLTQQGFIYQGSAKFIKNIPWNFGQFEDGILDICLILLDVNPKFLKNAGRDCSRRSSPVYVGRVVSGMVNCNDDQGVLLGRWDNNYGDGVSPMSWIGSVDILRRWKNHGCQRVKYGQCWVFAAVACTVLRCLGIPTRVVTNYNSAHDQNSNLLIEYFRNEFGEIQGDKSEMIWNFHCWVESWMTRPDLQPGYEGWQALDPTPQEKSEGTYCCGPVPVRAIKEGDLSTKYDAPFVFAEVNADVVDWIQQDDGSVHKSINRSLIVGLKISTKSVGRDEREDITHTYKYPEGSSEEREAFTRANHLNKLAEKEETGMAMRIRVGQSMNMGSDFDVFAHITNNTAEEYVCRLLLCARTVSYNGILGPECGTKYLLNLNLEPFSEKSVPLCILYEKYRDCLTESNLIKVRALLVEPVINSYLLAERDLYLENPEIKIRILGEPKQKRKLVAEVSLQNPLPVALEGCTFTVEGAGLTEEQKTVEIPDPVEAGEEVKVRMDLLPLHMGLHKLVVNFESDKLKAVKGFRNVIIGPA

[2] = molecular target: T1, Protein-glutamine gamma-glutamyltransferase (Homo sapiens); assay: Ratio of kinact to Ki for human TG2 by colorimetric assay
Homo sapiens = organism: Homo sapiens; assay: Selectivity ratio of Kobs for human TG2 to Kobs for activated human TG3
[3] = molecular target: T2, Coagulation factor XIII A chain (Homo sapiens) (UniProt P00488); assay: Inactivation of human F13a assessed as rate constant of enzyme inhibition using FRET- quenched A101 as substrate by fluorescence assay
T2 sequence (whole entry): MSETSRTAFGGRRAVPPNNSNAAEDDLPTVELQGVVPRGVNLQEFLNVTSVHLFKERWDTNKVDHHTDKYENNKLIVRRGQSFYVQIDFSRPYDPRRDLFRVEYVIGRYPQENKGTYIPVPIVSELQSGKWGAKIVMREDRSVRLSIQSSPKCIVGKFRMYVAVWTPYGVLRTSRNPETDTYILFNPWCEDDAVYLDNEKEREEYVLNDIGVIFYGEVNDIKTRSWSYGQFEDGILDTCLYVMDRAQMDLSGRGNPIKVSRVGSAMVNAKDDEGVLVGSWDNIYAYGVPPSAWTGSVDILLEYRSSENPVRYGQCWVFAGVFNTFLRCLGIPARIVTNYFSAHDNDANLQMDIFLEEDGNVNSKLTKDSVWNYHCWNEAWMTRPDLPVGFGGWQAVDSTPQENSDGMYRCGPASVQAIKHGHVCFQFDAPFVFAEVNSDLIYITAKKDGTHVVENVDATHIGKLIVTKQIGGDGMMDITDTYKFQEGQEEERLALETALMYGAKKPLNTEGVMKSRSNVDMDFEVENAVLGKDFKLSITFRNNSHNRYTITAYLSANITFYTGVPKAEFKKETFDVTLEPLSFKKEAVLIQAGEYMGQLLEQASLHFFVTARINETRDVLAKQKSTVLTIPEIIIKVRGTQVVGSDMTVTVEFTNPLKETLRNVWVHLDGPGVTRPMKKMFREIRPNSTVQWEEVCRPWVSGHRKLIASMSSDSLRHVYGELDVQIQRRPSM

[4] = molecular target: T3, Protein-glutamine gamma-glutamyltransferase K (Homo sapiens) (UniProt P22735); assay: Inactivation of human TG1 using AL5 as substrate by colorimetric assay
T3 sequence (whole entry): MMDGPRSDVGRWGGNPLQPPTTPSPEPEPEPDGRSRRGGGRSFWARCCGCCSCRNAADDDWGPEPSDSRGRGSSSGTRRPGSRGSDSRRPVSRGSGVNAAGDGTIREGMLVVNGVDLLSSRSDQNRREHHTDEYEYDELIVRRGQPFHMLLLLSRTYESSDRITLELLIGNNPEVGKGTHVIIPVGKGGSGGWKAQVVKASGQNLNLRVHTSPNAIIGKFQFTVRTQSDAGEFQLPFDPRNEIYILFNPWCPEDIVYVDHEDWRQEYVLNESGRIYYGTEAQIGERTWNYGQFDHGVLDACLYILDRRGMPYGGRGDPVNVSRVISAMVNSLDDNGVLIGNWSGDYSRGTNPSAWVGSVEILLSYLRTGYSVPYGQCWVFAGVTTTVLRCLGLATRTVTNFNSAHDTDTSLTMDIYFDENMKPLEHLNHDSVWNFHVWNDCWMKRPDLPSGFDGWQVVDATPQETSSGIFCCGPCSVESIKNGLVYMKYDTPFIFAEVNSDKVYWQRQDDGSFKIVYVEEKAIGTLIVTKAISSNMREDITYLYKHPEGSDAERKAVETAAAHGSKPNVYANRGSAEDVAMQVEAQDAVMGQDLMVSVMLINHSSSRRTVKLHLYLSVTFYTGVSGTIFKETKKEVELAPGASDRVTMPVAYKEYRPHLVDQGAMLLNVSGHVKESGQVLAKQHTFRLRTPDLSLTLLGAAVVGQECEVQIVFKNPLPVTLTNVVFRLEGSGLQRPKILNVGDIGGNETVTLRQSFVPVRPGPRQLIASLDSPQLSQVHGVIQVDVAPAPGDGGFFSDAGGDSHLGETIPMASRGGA

[5] = molecular target: T4, Protein-glutamine gamma-glutamyltransferase E (Homo sapiens) (UniProt Q08188); assay: Inactivation of activated human TG3 assessed as rate constant of enzyme inactivation using FRET- quenched A101 as substrate by fluorescence assay
T4 sequence (whole entry): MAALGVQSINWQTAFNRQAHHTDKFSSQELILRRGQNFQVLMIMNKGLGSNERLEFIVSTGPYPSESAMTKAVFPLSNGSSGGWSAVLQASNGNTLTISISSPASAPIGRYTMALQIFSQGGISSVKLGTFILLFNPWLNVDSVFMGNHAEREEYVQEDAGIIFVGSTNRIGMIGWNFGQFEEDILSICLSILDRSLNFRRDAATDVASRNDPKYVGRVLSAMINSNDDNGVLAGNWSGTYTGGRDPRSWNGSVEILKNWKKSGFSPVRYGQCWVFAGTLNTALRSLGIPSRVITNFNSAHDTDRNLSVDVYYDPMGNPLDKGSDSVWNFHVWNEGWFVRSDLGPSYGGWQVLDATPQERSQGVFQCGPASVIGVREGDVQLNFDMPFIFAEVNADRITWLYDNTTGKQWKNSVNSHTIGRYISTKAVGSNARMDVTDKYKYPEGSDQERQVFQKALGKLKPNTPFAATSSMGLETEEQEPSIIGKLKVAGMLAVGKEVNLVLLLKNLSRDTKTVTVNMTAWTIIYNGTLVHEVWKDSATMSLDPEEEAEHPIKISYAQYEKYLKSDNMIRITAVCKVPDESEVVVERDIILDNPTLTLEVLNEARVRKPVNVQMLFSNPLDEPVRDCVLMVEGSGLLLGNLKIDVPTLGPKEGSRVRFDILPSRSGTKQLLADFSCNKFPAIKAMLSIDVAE

Ratio (Cavia porcellus) [×10⁶ /M/min]	Kinact [1] [min⁻¹]	Ratio [2] [×10³ /M/min]	Selectivity ratio (Homo sapiens)	K [3] [×10⁻³ /min]	K [4] [×10⁻³ /min]	K [5] [×10⁻³ /min]	Structure (SMILES)
1.3	0.796	13.2					C=CC(=O)NCCCC[C@H](NC(=O)OCc1ccccc1)C(=O)O
	1.4	107	390	4.08	8.27	0.65	C=CC(=O)NCCCC[C@H](NC(=O)OCc1ccccc1)C(=O)N1CCN(S(=O)(=O)c2cccc3c(N(C)C)cccc23)CC1

Structure (SMILES)	Ratio (Cavia porcellus) [×10⁶ /M/min]	Kinact [1] [min⁻¹]	Ratio [2] [×10³ /M/min]	Selectivity ratio (Homo sapiens)	K [3] [×10⁻³ /min]	K [4] [×10⁻³ /min]	K [5] [×10⁻³ /min]
C=CC(=O)NCCCC[C@H](NC(=O)OCc1ccccc1)C(=O)N1CCN(C(=O)c2cccc3ccccc23)CC1		0.9	101				
